The list is not random: actives were taken first. Their share in the collection is about 1.6%.
CAL PDZ FP-1: human CAL PDZ-peptide interaction inhibition. Q9HD26. purified CAL PDZ, TMR-peptide fluorescence polarization, 1 h. inhibition, % at 20 µM. 330,000 compounds, 0.02% hits;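 active = highest replicate inhibition of at least 40%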
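material = purified tagged CAL PDZ domain construct (CerCALP) | compound dosing = 20 µM, one dose | times = 1 h at RT | measured by = fluorescence polarization from S- and P-plane intensities, G-factor corrected | read-out = inhibition from polarization loss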
PglD inh: inhibitors of Campylobacter jejuni PglD acetyltransferase; purified PglD enzyme, DTNB colorimetric CoA detection; inhibition, % at 12.5 µM; 360,000 compounds, 0.098% hits; AID 602405; in the data active = inhibition above about 16%, passing the limit was not always enough
ARNT TACC3 PPI: disrupts binding between human ARNT and TACC3; inhibition, % at 9.99 µM; Q9Y6A5; AID 623870; 390,000 compounds, 0.66% hits; AlphaScreen His-ARNT PAS-B/GST-TACC3 binding, luminescence; TACC3 fragment carries E629A point mutation;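 active = mean inhibition of replicates at least 50% and at least half of replicates each reaching 50%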
Yeast UUG start: alters start codon recognition fidelity in yeast. S. cerevisiae UUG-firefly luciferase reporter, luminescence/redox ratio. 350,000 tested, 0.13% active. activity score, % at 18.7 µM. AID 602363;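 active means replicate mean at a twofold rise or more, about +100% in these data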;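 further: firefly luciferase made from a UUG start codon reports start codon fidelity; reporter light over untreated wells divided by growth signal over untreated wells; some hits fall short of that in this replicate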
Vif inh: HIV Vif inhibition; HEK293T cells, Vif self-association by quenched fluorescence, imaging, 24 h; 340,000 compounds, 0.35% hits; inhibition, % at 7.49 µM; AID 602346; in the data active = inhibition above about 50%, passing the limit was not always enough
CAL PDZ FP-2: blocks peptide binding to the human CAL PDZ domain | Q9HD26 | purified CAL PDZ, TMR-peptide fluorescence polarization, 1 h | inhibition, % at 24.9 µM | 300,000 compounds, 0.92% hits;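 active = mean inhibition of at least 30% with at least half of replicates also reaching 30%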
A number is an active result; – = inactive; · = no result given; + = active, no number.

SMILES | CAL PDZ FP-1 | PglD inh | ARNT TACC3 PPI | Yeast UUG start | Vif inh | CAL PDZ FP-2
COc1ccc(N2CCN(C(=O)C(=O)c3c(C)n(C)c4ccccc34)CC2)cc1 | – | – | – | – | – | –
COc1ccc(N2CCN(CCCNC(=O)C(=O)c3c(C)n(C)c4ccccc34)CC2)cc1 | – | – | – | – | 54 | –
O=C(NCc1cccnc1)c1ccc(Cn2c(=S)[nH]c3ccc(Br)cc3c2=O)cc1 | – | – | – | – | – | +
O=c1c2cc(Br)ccc2[nH]c(=S)n1Cc1ccccc1 | – | – | – | – | · | ·
CC(C)(C)N(Cc1ccccc1)C(=O)c1cccs1 | – | – | – | – | – | –
N#CCCN(Cc1ccccc1)C(=O)c1cccs1 | – | – | – | – | – | +
CC(CO)NS(=O)(=O)c1ccc(Br)cc1F (stereo not drawn) | – | – | – | – | – | 40
CO[C@H]1CN(C)C(=O)c2cc(NC(=O)Nc3cc(F)ccc3F)ccc2OC[C@H](C)N(C)C[C@H]1C | · | – | – | – | · | ·
Cc1ccsc1C(=O)N/N=C/C=C/c1ccccc1[N+](=O)[O-] | – | – | – | – | – | 79
Cc1occc1C(=O)N/N=C/C=C\c1ccccc1[N+](=O)[O-] | – | · | · | · | – | –
Cc1ccccc1C1CC(=O)Oc2cc(O)ccc21 (stereo not drawn) | – | – | – | – | 63 | –
COc1ccc(C2CC(=O)Oc3cc(O)ccc32)cc1 (stereo not drawn) | – | – | – | – | – | –
CN(C1=C(N2CCOCC2)C(=O)c2ccccc2C1=O)c1ccccc1 | – | – | 60 | – | – | –
Cc1cccc(S(=O)(=O)N[C@@H]2CC[C@@H](CCNC(=O)CCN3CCCCC3)O[C@H]2CO)c1 | · | – | – | – | · | ·
Nc1[nH]c(N=NC(=O)c2ccccc2O)c2ccccc12 | – | – | 60 | – | – | –
CO[C@@H]1CN(C)C(=O)c2ccc(NC(=O)Nc3ccccc3Cl)cc2OC[C@@H](C)N(S(=O)(=O)CC(F)(F)F)C[C@H]1C | · | – | – | – | · | ·
Cc1noc(C)c1S(=O)(=O)Nc1ccc2c(c1)CC(=O)N([C@H](C)CO)C[C@H](C)[C@@H](CN(C)Cc1ccccc1)O2 | · | – | – | – | · | ·
C/C(=N\Nc1nc(N)cc(Cl)n1)c1ccc(F)cc1 | – | – | 48 | – | – | –
C/C(=N\Nc1nc(N)cc(Cl)n1)c1ccc(Cl)c(Cl)c1 | – | · | – | · | – | ·
CN(C)c1ccc(O)c2c1CC1CC3[C@@H](N(C)C)C(=O)C(C(N)=O)C(=O)[C@]3(O)C(=O)C1C2=O (stereo partly drawn) | – | – | 60 | – | – | –
CN(C)c1ccc(O)c2c1CC1CC3C(N(C)C)C(=O)C(C(N)=O)=C(O)[C@@]3(O)C(=O)C1=C2O (stereo partly drawn) | – | – | – | – | – | –
C[C@@H]1CN([C@H](C)CO)S(=O)(=O)c2ccc(-c3cccnc3)cc2O[C@@H]1CN(C)C(=O)NC1CCCC1 | · | – | – | – | · | ·
CC(O)CNCCCOc1cccc(Oc2ccccc2)c1 (stereo not drawn) | 134 | – | – | – | – | 111
CC(O)CNCCCOc1cccc(C(F)(F)F)c1 (stereo not drawn) | – | · | – | · | – | –
Cc1ccc(S(=O)(=O)Nc2cccc3c2O[C@@H](CN(C)C(=O)Nc2ccc(F)cc2)[C@@H](C)CN([C@H](C)CO)C3=O)cc1 | · | – | – | – | · | ·
SMILES | CAL PDZ FP-1 | PglD inh | ARNT TACC3 PPI | Yeast UUG start | Vif inh | CAL PDZ FP-2
C[C@H]1CN([C@@H](C)CO)C(=O)c2cc(C3=CCCCC3)cnc2O[C@@H]1CN(C)Cc1ccncc1 | · | – | – | – | · | ·
C=CCNc1sc(C(=O)c2ccc(Br)s2)c(N)c1C#N | – | · | – | – | 111 | –
C=CCNc1sc(C(=O)c2ccccc2)c(N)c1C#N | · | · | – | · | – | –
O=C(NCc1ccccn1)c1cn(Cc2ccccc2)nn1 | · | – | – | – | – | 105
CCC(C)n1c(-c2cccs2)nc2nc3ccccc3nc21 (stereo not drawn) | – | – | · | – | 68 | –
CCOc1ccc2nc(/N=C/c3c(C)[nH]n(-c4ccccc4)c3=O)sc2c1 | – | · | 27 | · | – | –
CCOc1ccc2nc(/N=C/c3c(C)[nH]n(-c4ccc(C)cc4)c3=O)sc2c1 | – | – | – | – | – | –
COc1ccc(NC(=O)N(C)C[C@@H]2Oc3ccc(NC(=O)Nc4cccc5ccccc45)cc3C(=O)N([C@H](C)CO)C[C@H]2C)cc1 | · | – | – | – | · | ·
O=C(NC(Cc1ccccc1)C(=O)O)c1ccccc1 (stereo not drawn) | – | – | – | – | – | –
O=C(NC(Cc1ccccc1)C(=O)O)c1ccco1 (stereo not drawn) | – | · | – | · | – | 32
C[C@H]1CN([C@@H](C)CO)C(=O)c2cc(-c3ccccc3)cnc2O[C@@H]1CN(C)C | · | – | – | – | · | ·
COc1ccc(OC)c(NC(=O)c2ccc3c(c2)OCO3)c1 | – | – | – | – | – | –
COc1ccc(OC)c(-c2csc(NC(=O)c3ccc4c(c3)OCO4)n2)c1 | – | · | – | · | – | 80
Cc1ccc(O)c(C(CC(=O)NCc2ccco2)c2ccccc2)c1 (stereo not drawn) | – | · | – | · | – | –
Cc1cccc(C(CC(=O)NCc2ccco2)c2ccccc2)c1O (stereo not drawn) | – | · | – | · | – | +
Cc1cccc(Nc2n[nH]c(=S)s2)c1C | – | · | – | · | – | –
COc1ccccc1Nc1n[nH]c(=S)s1 | – | · | – | · | – | 78
Fc1ccc(NCc2n[nH]c(=S)n2Cc2ccccc2)cc1 | – | – | – | – | 62 | –
S=c1[nH]nc(CNc2ccc(Cl)cc2)n1Cc1ccccc1 | – | · | – | · | – | –
COc1ccc(CNC(=O)C[C@@H]2CC[C@H]3[C@H](COc4ccc(NC(=O)C(C)C)cc4C(=O)N3C)O2)cc1 | · | – | – | · | · | ·
CC(=O)c1cnc2nc(SCc3ccc(Cl)cc3)nn2c1C | · | – | – | – | – | 178
S=c1[nH]ccn1-c1cccc(Cl)c1Cl | – | · | – | · | 52 | –
CO[C@@H]1CN(C)C(=O)c2cc(NC(C)=O)ccc2OC[C@H](C)N(C(=O)c2cnccn2)C[C@@H]1C | · | – | – | · | · | ·
CCCNC(=O)N1C[C@H](O)COC[C@H]2O[C@@H](CC(=O)N3CCOCC3)CC[C@@H]21 | · | – | – | – | · | ·
CCOc1ccc2nc(NCCNC(=O)Nc3ccccc3)c(C#N)cc2c1 | · | – | – | – | 57 | –
CCOc1ccc2nc(NCCNC(=O)Nc3cccc(C)c3)c(C#N)cc2c1 | – | – | – | – | – | –
C[C@H]1CN([C@@H](C)CO)C(=O)c2cccc(NS(=O)(=O)c3ccc(F)cc3)c2O[C@@H]1CN(C)S(=O)(=O)c1cccs1 | · | – | – | – | · | ·
CCCS(=O)(=O)c1nc(S(=O)(=O)c2ccc(C)cc2)c(NCCCN2CCCC2=O)s1 | – | – | – | – | – | 42

Bioassay records deposited in PubChem by Broad Institute.
